Test results taken from patent US20260235630A1 (EIKEN KAGAKU, published 2026).
One block for each binder: values may come before it.

Chains of the proteins cited; added tags and fusions are not shown. Residues count along the entry.
UniProt P69905, 2-142, chain 1 of 2: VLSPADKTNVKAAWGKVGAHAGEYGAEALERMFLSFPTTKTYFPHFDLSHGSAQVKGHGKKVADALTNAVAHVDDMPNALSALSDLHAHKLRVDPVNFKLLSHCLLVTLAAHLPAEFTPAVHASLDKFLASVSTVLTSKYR
Human hemoglobin, UniProt P68871, 2-147, chain 2 of 2: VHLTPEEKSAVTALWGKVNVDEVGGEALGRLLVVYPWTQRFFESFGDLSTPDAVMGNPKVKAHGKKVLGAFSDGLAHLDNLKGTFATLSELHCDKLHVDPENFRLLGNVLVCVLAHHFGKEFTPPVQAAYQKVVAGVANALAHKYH

Key:
[1] = target: T1, Human hemoglobin (human, UniProt P69905 2-142; P68871 2-147); assay: Hb value by OC-Hemodia Auto III reagent against sample without Hpt; Hpt 1 Unit (6.2 pmol/mL); no stool
[2] = target: T1, Human hemoglobin; assay: Hb value by OC-Hemodia Auto III reagent against sample without Hpt; Hpt 2 Unit (12.4 pmol/mL); no stool
[3] = target: T1, Human hemoglobin; assay: Hb value by OC-Hemodia Auto III reagent against sample without Hpt; Hpt 0.5 Unit (3.1 pmol/mL); no stool
[4] = target: T1, Human hemoglobin; assay: Hb value by OC-Hemodia Auto III reagent against sample without Hpt; Hpt 1 Unit (9.3 pmol/mL); with stool
Description: (§1) The Hb values of these samples were measured using an Hb measurement reagent (OC-Hemodia® Auto III ‘Eiken’ available from EIKEN CHEMICAL CO., LTD.) and a fully automated fecal occult blood immunochemical analyzer (OC Sensor DIANA available from EIKEN CHEMICAL CO., LTD.). The measured values were used as the initial starting values.

[5] = target: T1, Human hemoglobin; assay: Hb value by OC-Hemodia Auto III reagent against sample without Hpt; Hpt 0.25 Unit (1.55 pmol/mL); no stool
[6] = target: T1, Human hemoglobin; assay: Hb value by OC-Hemodia Auto III reagent against sample without Hpt; Hpt 0.5 Unit (4.65 pmol/mL); with stool
[7] = target: T1, Human hemoglobin; assay: Hb value by OC-Hemodia Auto III reagent against sample without Hpt; Hpt 0.125 Unit (0.775 pmol/mL); no stool
[8] = target: T1, Human hemoglobin; assay: Hb value by OC-Hemodia Auto III reagent against sample without Hpt; Hpt 0.25 Unit (2.325 pmol/mL); with stool
Description: as §1

[9] = target: T1, Human hemoglobin; assay: 59.4 µg/mL human Hb mixed with Hpt original solution at 0.125% (vol/vol); free Hb read with latex reagent No. 16 + No. 11
[10] = target: T1, Human hemoglobin; assay: 59.4 µg/mL human Hb mixed with Hpt original solution at 0.250% (vol/vol); free Hb read with latex reagent No. 16 + No. 11
[11] = target: T1, Human hemoglobin; assay: 59.4 µg/mL human Hb mixed with Hpt original solution at 0.500% (vol/vol); free Hb read with latex reagent No. 16 + No. 11
[12] = target: T1, Human hemoglobin; assay: 59.4 µg/mL human Hb mixed with Hpt original solution at 1.000% (vol/vol); free Hb read with latex reagent No. 16 + No. 11
[13] = target: T1, Human hemoglobin; assay: Hb value by OC-Hemodia Auto III reagent against sample without Hpt; Hpt 1 Unit (6.2 pmol/mL); no stool; remark: listed apart in the source
[14] = target: T1, Human hemoglobin; assay: Hb value by OC-Hemodia Auto III reagent against sample without Hpt; Hpt 0.5 Unit (3.1 pmol/mL); no stool; remark: listed apart in the source
[15] = target: T1, Human hemoglobin; assay: Hb value by OC-Hemodia Auto III reagent against sample without Hpt; Hpt 0.25 Unit (1.55 pmol/mL); no stool; remark: listed apart in the source
[16] = target: T1, Human hemoglobin; assay: Hb value by OC-Hemodia Auto III reagent against sample without Hpt; Hpt 0.5 Unit (4.65 pmol/mL); with stool; remark: listed apart in the source
Description: as §1

[17] = target: T1, Human hemoglobin; assay: Hb value by OC-Hemodia Auto III reagent against sample without Hpt; Hpt 0.125 Unit (0.775 pmol/mL); no stool; remark: listed apart in the source
[18] = target: T1, Human hemoglobin; assay: Hb value by OC-Hemodia Auto III reagent against sample without Hpt; Hpt 1 Unit (6.2 pmol/mL); no stool; remark: listed apart in the source
[19] = target: T1, Human hemoglobin; assay: Hb value by OC-Hemodia Auto III reagent against sample without Hpt; Hpt 0.5 Unit (3.1 pmol/mL); no stool; remark: listed apart in the source
[20] = target: T1, Human hemoglobin; assay: Hb value by OC-Hemodia Auto III reagent against sample without Hpt; Hpt 0.25 Unit (1.55 pmol/mL); no stool; remark: listed apart in the source
[21] = target: T1, Human hemoglobin; assay: Hb value by OC-Hemodia Auto III reagent against sample without Hpt; Hpt 0.125 Unit (0.775 pmol/mL); no stool; remark: listed apart in the source
[22] = target: T1, Human hemoglobin; assay: Hb value by OC-Hemodia Auto III reagent against sample without Hpt; Hpt 0.25 Unit (2.325 pmol/mL); with stool; remark: listed apart in the source

Ratio to no Hpt addition (%) [1]: 72%
Ratio to no Hpt addition (%) [2]: 39%
Ratio to no Hpt addition (%) [3]: 85%
Ratio to no Hpt addition (%) [4]: 75%
Ratio to no Hpt addition (%) [5]: 91%
Ratio to no Hpt addition (%) [6]: 88%
Ratio to no Hpt addition (%) [7]: 94%
Ratio to no Hpt addition (%) [8]: 95%
free-Hb concentration left [9]: 57.1 µg/mL
free-Hb concentration left [10]: 55.9 µg/mL
free-Hb concentration left [11]: 50.8 µg/mL
free-Hb concentration left [12]: 43.7 µg/mL
B1: Human Hpt (type 1-1), without enzyme treatment (other)
chain: VDSGNDVTDIADDGCPKPPEIAHGYVEHSVRYQCKNYYKLRTEGDGVYTLNNEKQWINKAVGDKLPECEAVCGKPKNPANPVQRILGGHLDAKGSFPWQAKMVSHHNLTTGATLINEQWLLTTAKNLFLNHSENATAKDIAPTLTLYVGKKQLVEIEKVVLHPNYSQVDIGLIKLKQKVSVNERVMPICLPSKDYAEVGRVGYVSGWGRNANFKFTDHLKYVMLPVADQDQCIRHYEGSTVPEKKTPKSPVGVQPILNEHTFCAGMSKYQEDTCYGDAGSAFAVHDLEEDTWYATGILSFDKSCAVAEYGVYVKVTSIQDWVQKTIAEN
modifications: natural N-linked glycans on Asn 125, 148, 152, 182 (Table 1, type 1 numbering)
notes: Purified from human serum; [α1β]2; The entry is the prepro form; also called purified human Hpt

Ratio to no Hpt addition (%) [1]: 82%
Ratio to no Hpt addition (%) [2]: 47%
Ratio to no Hpt addition (%) [3]: 93%
Ratio to no Hpt addition (%) [4]: 87%
Ratio to no Hpt addition (%) [5]: 94%
Ratio to no Hpt addition (%) [6]: 93%
Ratio to no Hpt addition (%) [7]: 99%
Ratio to no Hpt addition (%) [8]: 99%
B2: Human dHpt (PNGase) (other)
chain: B1 chain
modifications: N-linked glycans (Asn 125, 148, 152, 182) cut off by PNGase F
notes: also called PNGase-treated human Hpt

Ratio to no Hpt addition (%) [1]: 87%
Ratio to no Hpt addition (%) [2]: 65%
Ratio to no Hpt addition (%) [3]: 93%
Ratio to no Hpt addition (%) [4]: 86%
Ratio to no Hpt addition (%) [5]: 98%
Ratio to no Hpt addition (%) [6]: 94%
Ratio to no Hpt addition (%) [7]: 98%
Ratio to no Hpt addition (%) [8]: 98%
B3: Human dHpt (ENGase) (other)
chain: B1 chain
modifications: N-linked glycans (Asn 125, 148, 152, 182) cut by Endo F2, which leaves one GlcNAc residue (with or without fucose)
notes: also called ENGase-treated human Hpt

Ratio to no Hpt addition (%) [13]: 65%
Ratio to no Hpt addition (%) [14]: 81%
Ratio to no Hpt addition (%) [4]: 69%
Ratio to no Hpt addition (%) [15]: 89%
Ratio to no Hpt addition (%) [16]: 84%
Ratio to no Hpt addition (%) [17]: 97%
Ratio to no Hpt addition (%) [8]: 93%
free-Hb concentration left [9]: 58.6 µg/mL
free-Hb concentration left [10]: 57.8 µg/mL
free-Hb concentration left [11]: 57 µg/mL
free-Hb concentration left [12]: 55.9 µg/mL
B4: Porcine Hpt, without enzyme treatment (other)
chain: AETGNEATDATDDSCPKPPEIPKGYVEHMVRYHCQTYYKLRTAGDGVYTLDSNKQWTNKVTGEKLPECEAVCGKPKNPVDQVQRIMGGSLDAKGSFPWQAKMISHHNLTSGATLINEQWLLTTAKNLRLGHKNDTKAKDIAPTLRLYVGKKQEVEIEKVIFHPDNSTVDIGLIKLKQKVPVNERVMPICLPSKDYVNVGLVGYVSGWGRNANLNFTEHLKYVMLPVADQEKCVQYYEGSTVPEKKTPKSPVGVQPILNEHTFCAGLSKYQEDTCYGDAGSAFAVHDKDDDTWYAAGILSFDKSCRTAEYGVYVRVTSILDWIQTTIADN
modifications: natural N-linked glycans on Asn 125, 151, 183, 232
notes: Purified from porcine serum; also called purified porcine Hpt

Ratio to no Hpt addition (%) [13]: 88%
Ratio to no Hpt addition (%) [14]: 94%
Ratio to no Hpt addition (%) [4]: 94%
Ratio to no Hpt addition (%) [15]: 96%
Ratio to no Hpt addition (%) [16]: 98%
Ratio to no Hpt addition (%) [17]: 98%
Ratio to no Hpt addition (%) [8]: 100%
B5: Porcine dHpt (ENGase) (other)
chain: B4 chain
modifications: N-linked glycans (Asn 125, 151, 183, 232) cut by Endo F2, which leaves one GlcNAc residue (with or without fucose)
notes: also called ENGase-treated porcine Hpt

Ratio to no Hpt addition (%) [13]: 78%
Ratio to no Hpt addition (%) [14]: 89%
Ratio to no Hpt addition (%) [4]: 81%
Ratio to no Hpt addition (%) [15]: 95%
Ratio to no Hpt addition (%) [16]: 91%
Ratio to no Hpt addition (%) [17]: 97%
Ratio to no Hpt addition (%) [8]: 95%
B6: Porcine dHpt (PNGase) (other)
chain: B4 chain
modifications: N-linked glycans (Asn 125, 151, 183, 232) cut off by PNGase F
notes: also called PNGase-treated porcine Hpt

Ratio to no Hpt addition (%) [18]: 93%
Ratio to no Hpt addition (%) [19]: 106%
Ratio to no Hpt addition (%) [4]: 96%
Ratio to no Hpt addition (%) [20]: 101%
Ratio to no Hpt addition (%) [16]: 101%
Ratio to no Hpt addition (%) [21]: 101%
Ratio to no Hpt addition (%) [22]: 100%
free-Hb concentration left [9]: 51.8 µg/mL
free-Hb concentration left [10]: 45.3 µg/mL
free-Hb concentration left [11]: 34.7 µg/mL
free-Hb concentration left [12]: 15.6 µg/mL
B7: Equine dHpt (ENGase) (other)
chain: VDTGNEATDFTDDSCPKPPEIPNGYVEHLVRYQCKNYYRLRSEGDGVYALNSEKQWVNKASGTKLPECEAVCGKPKNPVDQVQRIIGGLLDAKGSFPWQAKLVSRHNLTTGATLISEQWLLTTAQNLFLNHTPDAKPKDIAPTLKLYVGRKQPVEIEKVVFHPDYQEVDIGLIKLKEKVPVGERVMPICLPSKDYAQVGRVGYVSGWGRNANFNFTELLKYVTLPVADQDTCVKHYEGSTVPEKKTNRSSVGVQPILNEHTFCAGLSKFQEDTCYGDAGSAFVIHDEEDDTWYAAGILSFDKSCAVAEYGVYVKVPSILDWVQKTIAEN
modifications: N-linked glycans (Asn 125, 148, 232, 265) cut by Endo F2, which leaves one GlcNAc residue (with or without fucose)
notes: also called ENGase-treated equine Hpt

Ratio to no Hpt addition (%) [18]: 68%
Ratio to no Hpt addition (%) [19]: 88%
Ratio to no Hpt addition (%) [4]: 92%
Ratio to no Hpt addition (%) [20]: 92%
Ratio to no Hpt addition (%) [16]: 97%
Ratio to no Hpt addition (%) [21]: 97%
Ratio to no Hpt addition (%) [22]: 98%
B8: Equine dHpt (PNGase) (other)
chain: B7 chain
modifications: N-linked glycans (Asn 125, 148, 232, 265) cut off by PNGase F
notes: also called PNGase-treated equine Hpt

Ratio to no Hpt addition (%) [18]: 50%
Ratio to no Hpt addition (%) [19]: 74%
Ratio to no Hpt addition (%) [4]: 67%
Ratio to no Hpt addition (%) [20]: 90%
Ratio to no Hpt addition (%) [16]: 85%
Ratio to no Hpt addition (%) [21]: 94%
Ratio to no Hpt addition (%) [22]: 93%
free-Hb concentration left [9]: 58.3 µg/mL
free-Hb concentration left [10]: 54.6 µg/mL
free-Hb concentration left [11]: 51 µg/mL
free-Hb concentration left [12]: 43.2 µg/mL
B9: Equine Hpt, without enzyme treatment (other)
chain: B7 chain
modifications: natural N-linked glycans on Asn 125, 148, 232, 265
notes: Purified from equine serum; also called purified equine Hpt
